Test system: α1-acid glycoprotein (AGP)
Assay: Bound percentage by HPLC on AGP column, extrapolation to zero organic modifier
Format: in vitro ADME, human
Settings: average of IPA, EtOH, MeOH
Protocol: Chromatographic columns containing proteins can be used to determine the percentage of drug binding. A plot of the natural logarithm of the retention factors against the proportion of organic modifiers was created. […] The intercept of these linear equations can be used to calculate the bound percentage according to Equation (4) (see in Section 3.2).
Chromatographic measurements were carried out on two separate HPLC systems. […] Chromatographic parameters were calculated based on the following equations. The retention factor (k) was calculated as:(1) k=(tr−t0)/t0 where tr is the retention time of the investigated analyte, and t0 is the dead time, determined as the first peak appearance in the chromatogram. Resolution was calculated based on the following equation:(2) Rs=2(t2−t1)/(w1+w2) where t2 and t1 are the retention times of the second and first eluted enantiomers, respectively, while w is the peak width. The separation factor (α) was calculated as follows:(3) α=k2/k1 where k1 and k2 are the retention factors of the first- and second-eluting enantiomers, respectively. […]

COc1ccc2[nH]c([S@+]([O-])Cc3ncc(C)c(OC)c3C)nc2c1 [R-omeprazole]
Bound percentage (b%), average: 96.65 ± 2.36%
